Measurements reported in publication PMC11124525, “Pharmacokinetic–Pharmacodynamic Correlation Analysis of Rhodiola crenulata in Rats with Myocardial Ischemia” (Pharmaceuticals, 2024).

What was measured:
[1] = Protocol: A series concentration mixed reference solution with different concentrations was added to 100 μL plasma, and was treated according to the method under Section 4.6 to obtain the matrix standard curve sample. Samples with concentrations of 400, 100, and 10 ng/mL, respectively, were taken as quality control (QC) samples of high, medium, and low concentrations (HQC, MQC, LQC). The method was validated, including linearity, inter-day/intra-day precision, repeatability, stability, extraction recovery, and matrix effect, according to FDA bioanalytical method validation guidelines.
[2] = PK of five RC components in sham operation administration (SDG, normal) rats after oral RC extract, HPLC-QQQ-MS/MS, DAS; assay type: in vivo; conditions: oral RC extract 2 g/kg, plasma, mean ± SD, n = 6
Protocol: (§1) The drug concentration in plasma was calculated using the standard curve, and the mean blood concentration was plotted against the time to obtain the mean blood concentration–time curve (Figure 4).
(§2) The rat model of MI was made with Pit. The rats were divided into a sham operation group (SG), sham operation administration group (SDG), model group (MG), and model administration group (MDG) (n = 6 for each group). The MI model was prepared via an intraperitoneal injection (a single time) of Pit in the MG and MDG, with a dosage of 20 U/kg and a volume of 10 mL/kg. At the same time, the rats in the SG and SDG groups were given the same volume of saline in the same way.
(§3) RC extract (2 g/kg, equivalent to human clinical equivalent dose) was given to rats via oral administration in SDG and MDG, and the same volume of normal saline was orally administered to the SG and MG. Rats were fasted for 12 h before the experiment. Blood was collected from the fundus venous plexus at 0, 5, 10, 15, 30, 45 min, 1, 2, 4, 6, 8, 12, and 24 h after in gavage, placed in a centrifuge tube impregnated with heparin sodium, centrifuged at 3500 rpm for 15 min, and then the plasma was collected and divided into two parts. One part was used for biochemical index determination and the other part was used to determine the content of pharmaceutical ingredients in vivo. After the experiment, the rats were sacrificed, and the hearts were placed in paraformaldehyde for histopathological analysis.
(§4) The plasma sample of 100 μL was accurately absorbed, 50 μL internal standard solution (Nimodipine, 500 ng/mL) was added, then 300 μL acetonitrile precipitated protein was added, vortex for 10 min, placed under ultrasound for 3 min, centrifuged at 13,000 rpm for 10 min, and then the supernatant was transferred to another centrifuge tube. It was then concentrated until dry with a rotary evaporator. The residue was redissolved with 100 μL 50% acetonitrile, swirled for 1 min, placed under ultrasonic for 3 min, centrifuged at 13,000 rpm for 10 min, and the supernatant was taken for analysis.
(§5) A validated HPLC-QQQ-MS/MS method was used for the determination of drug-derived components in plasma samples at different time points. The accompanying standard curve was substituted to calculate the content of the compounds to be measured, and then the PK parameters were calculated using DAS software (version 3.2.8), and the blood concentration–time curve was plotted using GraphPad Prism (version 8.0.2). PK behavior was compared between the sham operation and model group, and PK models were established, respectively.

[3] = PK of five RC components in pituitrin-induced myocardial ischemia (MDG) rats after oral RC extract, HPLC-QQQ-MS/MS, DAS; assay type: in vivo, SD rats
Protocol: as §1, §2, §3, §4, §5

[4] = MDG (myocardial ischemia) rats, oral RC extract 2 g/kg, plasma, mean ± SD, n = 6
[5] = MDG vs SDG rats, oral RC extract 2 g/kg

For `OCCc1ccc(O)cc1` [Tyrosol, tyrosol], the “Stability RE (%)” value ([1]; rat, 48 h, 400 ng/mL) was 93.15% and the “Stability RE (%)” value ([1]; rat, 10 days, 50 ng/mL) was 93.68%.

In the case of rhodiosin, the “AUC(0−t)” value [2] is reported as 1190.07 ± 56.37 ng·h/mL, the “AUC(0−∞)” value [2] is reported as 1208.73 ± 44.35 ng·h/mL and the CLz/F [2] is reported as 69 ± 2.5 mL/min/kg. For the same compound, the Cmax [2] was 259.08 ± 30.04 ng/mL, the “MRT(0−)” value [2] was 4.28 ± 0.27 h and the “MRT(0−∞)” value [2] was 4.75 ± 1.08 h. For the same compound, the Tmax [2] was 1.83 ± 0.41 h, the t1/2z [2] was 4.18 ± 2.26 h and the “AUC(0−t)” value [3, 4] was 1736.61 ± 257.41 ng·h/mL. The “AUC(0−∞)” value [3, 4] was 1754.66 ± 238.70 ng·h/mL, the CLz/F [3, 4] was 48.2 ± 6.5 mL/min/kg and the Cmax [3, 4] was 336.63 ± 22.81 ng/mL. For the same compound, the “MRT(0−)” value [3, 4] was 3.94 ± 0.34 h, the “MRT(0−∞)” value [3, 4] was 4.3 ± 0.40 h and the Tmax [3, 4] was 2.5 ± 1.23 h. The Vz/F [3, 4] was 16.21 ± 14.31 L/kg, the t1/2z [3, 4] was 3.65 ± 2.87 h and the “Change of CLZ/F in MDG compared with SDG” value [3, 5] was “marked decreasing tendency; also recorded: decreased significantly”. For the same compound, the “Change of Cmax in MDG compared with SDG” value [3, 5] was “increased significantly; also recorded: significantly increased”, the “Tmax (approximate)” value ([3]; according to the PK results, group not given, oral RC extract) was “about 2 h” and the “Stability RE (%)” value ([1]; rat plasma, 4 °C, 48 h, spiked 10 ng/mL, n = 6) was 103.8%. The “Stability RE (%)” value ([1]; rat plasma, 4 °C, 48 h, spiked 50 ng/mL, n = 6) was 95.62%, the “Stability RE (%)” value ([1]; rat plasma, 4 °C, 48 h, spiked 400 ng/mL, n = 6) was 93.17% and the “Stability RE (%)” value ([1]; rat plasma, three freeze–thaw cycles, spiked 10 ng/mL, n = 6) was 88.83%. For the same compound, the “Stability RE (%)” value ([1]; rat plasma, three freeze–thaw cycles, spiked 50 ng/mL, n = 6) was 98.28%, the “Stability RE (%)” value ([1]; rat plasma, three freeze–thaw cycles, spiked 400 ng/mL, n = 6) was 93.72% and the “Stability RE (%)” value ([1]; rat plasma, −80 °C, 10 days, spiked 10 ng/mL, n = 6) was 92.37%. For the same compound, the “Stability RE (%)” value ([1]; rat plasma, −80 °C, 10 days, spiked 50 ng/mL, n = 6) was 100.9%, the “Stability RE (%)” value ([1]; rat plasma, −80 °C, 10 days, spiked 400 ng/mL, n = 6) was 90.82% and the “Stability in plasma samples (in words)” value ([1]; simulated sample storage, handling and analysis (48 h at 4 °C and 10 days in 3 freeze–thaw cycles)) was “stable”.

Entries after “also recorded” stand apart in the source; their conditions may differ. Like-named read-outs stand apart in the source and are kept apart here.
